# Measured water solubility values of organic chemicals

Data: OPERA 2.9 data sets, kmansouri/OPERA on GitHub.

Water solubility is log10 of mol/L, nominally at 25 °C; higher is more soluble.

{"smiles": "CCN(CC)C(=O)N1CCN(C)CC1", "name": "Diethylcarbamazine", "log solubility (log10 mol/L)": "0.073"}
{"smiles": "COC(=O)c1cc(CCl)nn1-c1ncccc1Cl", "log solubility (log10 mol/L)": "-2.833"}
{"smiles": "CC(=O)Nc1ccc(S(=O)(=O)Cl)cc1", "name": "4-(Acetylamino)benzenesulfonyl chloride", "log solubility (log10 mol/L)": "-1.785"}
{"smiles": "CC(C)(C)CC(C)(C)Nc1nc(Cl)nc(Cl)n1", "log solubility (log10 mol/L)": "-6.048"}
{"smiles": "Cn1cc(C(=O)O)c(C(F)F)n1", "name": "3-(Difluoromethyl)-1-methyl-1H-pyrazole-4-carboxylic acid", "log solubility (log10 mol/L)": "-1.689"}
{"smiles": "Br.COc1ccc(C)cc1C(CCN(C(C)C)C(C)C)c1ccccc1", "stereo": "configuration not stated", "log solubility (log10 mol/L)": "-1.946"}
{"smiles": "Nc1[nH]c(=O)nc2nc[nH]c12", "name": "Isoguanine", "log solubility (log10 mol/L)": "-3.376"}
{"smiles": "COC(=O)[C@@]1(C)[C@H](C)C[C@H]2[C@@H]3CCC4=CC(=O)C=C[C@]4(C)[C@H]3[C@@H](O)C[C@@]21C", "name": "Rimexolone", "log solubility (log10 mol/L)": "-4.488"}
{"smiles": "N#CCC(=O)c1ccccc1Cl", "name": "2-Chlorobenzoylacetonitrile", "log solubility (log10 mol/L)": "-2.175"}
{"smiles": "CCC[C@H]1CC[C@H](C2CC=C(c3ccc(OCC)c(F)c3F)CC2)CC1", "stereo": "some centres not stated", "log solubility (log10 mol/L)": "-6.957"}
{"smiles": "CCCCCCCCCCCCCCCCCCN(CCO)CCO", "name": "2,2'-(Octadecylimino)diethanol", "log solubility (log10 mol/L)": "-5.775"}
{"smiles": "Nc1cccc2cc(S(=O)(=O)O)ccc12", "name": "2-Naphthalenesulfonic acid, 5-amino-", "log solubility (log10 mol/L)": "-2.35"}
{"smiles": "CCN(CC)CCOc1ccc(C(=C(Cl)c2ccccc2)c2ccccc2)cc1", "name": "Clomiphene", "log solubility (log10 mol/L)": "-5.991"}
{"smiles": "Nc1ccc(C2(c3ccc(N)c(Cl)c3)c3ccccc3-c3ccccc32)cc1Cl", "name": "4,4'-(9H-Fluorene-9,9-diyl)bis(2-chloroaniline)", "log solubility (log10 mol/L)": "-6.904"}
{"smiles": "Cc1ccc(S(=O)(=O)Nc2cc(S(=O)(=O)[O-])cc3cc(S(=O)(=O)[O-])c(/N=N/c4ccc(Oc5ccccc5C)cc4Oc4ccccc4C)c(O)c23)cc1.[Na+].[Na+]", "log solubility (log10 mol/L)": "-2.567"}
{"smiles": "COC(=O)C=C1CCCC1", "name": "Methyl cyclopentylideneacetate", "log solubility (log10 mol/L)": "-1.973"}
{"smiles": "CC(C=O)Cc1ccc(C(C)(C)C)cc1", "stereo": "configuration not stated", "name": "2-(4-Tert-Butylbenzyl)propionaldehyde", "log solubility (log10 mol/L)": "-3.792"}
{"smiles": "COc1ccc(/C=C(\\C#N)C(=O)OCC(C)(C)C2OCC3(CO2)COC(C(C)(C)COC(=O)/C(C#N)=C/c2ccc(OC)c(OC)c2)OC3)cc1OC", "stereo": "stereo partly drawn", "log solubility (log10 mol/L)": "-7.472"}
{"smiles": "O=[N+]([O-])c1cc(O)ccc1NCCCO", "name": "4-Hydroxypropylamino-3-nitrophenol", "log solubility (log10 mol/L)": "-2.136"}
{"smiles": "O=CC1=C(Cl)/C(=C/O)CCC1", "name": "(3E)-2-Chloro-3-(hydroxymethylene)cyclohexene-1-carbaldehyde", "log solubility (log10 mol/L)": "-2.574"}
{"smiles": "Nc1cccc(S(=O)(=O)c2cccc(N)c2)c1", "name": "3,3'-Sulphonyldianiline", "log solubility (log10 mol/L)": "-3.512"}
{"smiles": "CC(CO)C1CCCCCCCCCCC1", "stereo": "configuration not stated", "name": "2-Cyclododecylpropan-1-ol", "log solubility (log10 mol/L)": "-5.452"}
{"smiles": "CCCCCCCCCCCCC1CO1", "stereo": "configuration not stated", "name": "1,2-Epoxytetradecane", "log solubility (log10 mol/L)": "-5.985"}
{"smiles": "Fc1cccc(C(F)(F)F)n1", "name": "2-Fluoro-6-(trifluoromethyl)pyridine", "log solubility (log10 mol/L)": "-1.95"}
{"smiles": "OC(CCl)CCl", "name": "1,3-Dichloro-2-propanol", "log solubility (log10 mol/L)": "-0.11"}
{"smiles": "O=C(Nc1ccc(Cc2ccc(NC(=O)Oc3ccccc3)cc2)cc1)Oc1ccccc1", "name": "Diphenyl (methylenedi-4,1-phenylene)biscarbamate", "log solubility (log10 mol/L)": "-6.836"}
{"smiles": "CC1=CCC(C(C)(C)O)CC1O", "stereo": "configuration not stated", "name": "5-Hydroxy-alpha,alpha,4-trimethylcyclohex-3-ene-1-methanol", "log solubility (log10 mol/L)": "-0.726"}
{"smiles": "Nc1cc(Cl)ccc1Oc1ccc(Cl)cc1Cl", "name": "5-Chloro-2-(2,4-dichlorophenoxy)aniline", "log solubility (log10 mol/L)": "-5.045"}

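The OPERA project collected these measurements from public sources as training and test data for property models. A listed value is a point estimate from one report or more. Method, purity and exact conditions of the single measurements are not given. The measured form (salt, isomer or mixture) is not always the one drawn. Some upstream entries may be estimates or bounds without being marked so.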